Data taken from patent publication US10183008B2, “Treatment of prolonged status epilepticus” (University of South Carolina, priority 2011, dated 2019).

Key:
[1] = test system: tonic inhibition (GABAergic tonic current); assay: Brain slice whole-cell electrophysiology: tonic current in dentate granule cells; type: cell-based, rat; conditions: DZP 1 μM, STP 100 μM, n=3-4
[2] = test system: lithium-pilocarpine model of S.E.; assay: Lithium-pilocarpine model of status epilepticus, behavioral seizure scoring (Racine scale); type: in vivo, rat; conditions: prolonged SE (45 min after stage 3 onset) vs brief SE

## CC(C)(C)C(O)/C=C/c1ccc2c(c1)OCO2 (centres unmarked) [STP, 1-(3,4-methylenedioxyphenyl)-4,4-dimethylpent-1-en-3-ol]
[1]
  potentiation of tonic current during prolonged SE: but not STP
[2]
  pharmacoresistance following prolonged SE (shift of ED50 for seizure termination): develops little pharmacoresistance
